For orientation: IC50 means the concentration that inhibits the measured activity by half.

Results on 1 compound are retold here after ChEMBL document CHEMBL3351803, “5Z-7-Oxozeaenol covalently binds to MAP2K7 at Cys218 in an unprecedented manner” (Bioorg Med Chem Lett, 2015).

This experiment has as its target T1, Mitogen-activated protein kinase kinase kinase 7 (Homo sapiens, UniProt O43318).
T1 sequence (O43318 whole entry): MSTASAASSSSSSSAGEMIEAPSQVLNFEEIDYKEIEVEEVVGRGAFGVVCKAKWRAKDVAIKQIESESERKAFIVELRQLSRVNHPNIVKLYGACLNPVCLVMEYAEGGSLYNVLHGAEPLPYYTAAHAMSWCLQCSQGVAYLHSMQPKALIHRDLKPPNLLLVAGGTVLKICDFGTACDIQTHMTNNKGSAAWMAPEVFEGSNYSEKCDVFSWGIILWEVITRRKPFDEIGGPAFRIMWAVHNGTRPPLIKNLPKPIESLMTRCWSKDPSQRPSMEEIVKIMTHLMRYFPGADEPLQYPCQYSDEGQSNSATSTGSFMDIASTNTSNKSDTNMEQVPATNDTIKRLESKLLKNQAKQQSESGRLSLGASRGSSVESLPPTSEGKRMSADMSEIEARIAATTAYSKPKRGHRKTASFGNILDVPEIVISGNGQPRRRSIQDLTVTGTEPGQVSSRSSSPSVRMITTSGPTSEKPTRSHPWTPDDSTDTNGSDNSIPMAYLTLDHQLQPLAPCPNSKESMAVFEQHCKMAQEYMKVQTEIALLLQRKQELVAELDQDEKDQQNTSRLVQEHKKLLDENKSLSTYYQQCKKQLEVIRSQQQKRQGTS
In words: Inhibition of TAK1 (unknown origin) using unphosphorylated GST-tagged MAP2K7 substrate protein assessed as phosphorylation by ELISA. (An ELISA detects its analyte on a solid surface through an enzyme-linked reagent.)

Take `COc1cc(O)c2c(c1)/C=C/C[C@H](O)[C@H](O)C(=O)/C=C\C[C@H](C)OC2=O`: the half-maximal inhibitory concentration (IC50) turned out to be 80 nM.
